Assay results from patent US6737397B1, “Control of cancer growth through the interaction of [MET5]-enkephalin and the zeta receptor” (The Penn State Research Foundation, priority 1996, dated 2004).

Key:
[1] = tested on: BxPC-3 human pancreatic tumor cells; test: BxPC-3 human pancreatic tumor xenografts in nude mice treated with OGF; type: in vivo
Method: BxPC-3 human pancreatic cancer cells, purchased from the American Type Culture Collection (Rockville, Md.), were grown in RPMI media containing 10% fetal calf serum, penicillin (10 units/ml), and streptomycin (100 μg/ml) in an atmosphere of 93% air and 7% CO2 at 37° C. Cell viability was determined by the trypan blue exclusion test. Three-to-4-week-old male athymic nude mice, obtained from Charles River Laboratories (Wilmington, Mass.), were injected subcutaneously over the right shoulder with BxPC-3 cells (log phase) in a 0.5 ml suspension of RPMI media. The day of tumor cell inoculation was considered day 0. Mice were evaluated daily and the date that the tumor became ‘visible’ was recorded. Individual tumors were measured with vernier calipers every 2 days. Measurements of the largest perpendicular dimensions were recorded and tumor volume was calculated using the formula: length×width^2×0.5[25]. The time of ‘initial’ appearance of a tumor wag considered to be the day when tumor volume was 5 mm^3 of greater. All mice were euthanized and necropsied 30 days after tumor cell inoculation. Tumor tissues for receptor binding assays, radioimmunoassays, and immunocytochemistry were rapidly frozen in liquid nitrogen and stored at −70° C. until assayed.
Drug treatment was initiated on the day of tumor cell inoculation. Mice received subcutaneous injections three times daily (i.e. 0730, 1200,1700 h) of either 5 mg/kg [Met^5]enkephalin (OGF) or an equal volume of sterile water (controls); the dosage of OGF was not toxic. Injections were administered in the right or left flank. Animals were weighed weekly and appropriate dosage adjustments made.
The latencies for visible and initial tumor appearance, as well as the appearance of a tumor volume measuring 62.5 mm^3 (when each perpendicular measurement was 5 mm), were recorded.
Latencies for visible and initial appearance as well as tumors ≧62.5 mm were analyzed using one way analysis of variance; subsequent comparisons were made with the Newman-Keuls tests. The number of mice with initial tumor appearance on selected days was expressed as a ratio of the total number of mice in the group, and comparisons of percentages were made with chi-square tests.

[2] = 5 mg/kg OGF three times daily, day 30

[Met^5]-enkephalin
behavioral abnormalities (e.g. hyperactivity, biting) ([1]; 5 mg/kg OGF three times daily): No behavioral abnormalities | body weights versus sterile water ([1]; 5 mg/kg OGF three times daily): comparable | metastases or lesions at necropsy ([1]; 5 mg/kg OGF three times daily, 30 days): No metastases or lesions | toxicity of the dosage ([1]; 5 mg/kg s.c. three times daily): not toxic | [Met5]enkephalin levels in tumors greater than in control animals [2]: 24 fold | plasma [Met5]enkephalin greater in control mice than in animals receiving OGF [2]: 8.6 fold
